Substitutions are numbered along the chain they refer to.

Chains of the proteins cited; added tags and fusions are not shown. Lines headed by an entry give the natural chain unless they say otherwise; changes in a name come on top. Residues count along the entry.
UniProt P48730, 9-277 limits assumed: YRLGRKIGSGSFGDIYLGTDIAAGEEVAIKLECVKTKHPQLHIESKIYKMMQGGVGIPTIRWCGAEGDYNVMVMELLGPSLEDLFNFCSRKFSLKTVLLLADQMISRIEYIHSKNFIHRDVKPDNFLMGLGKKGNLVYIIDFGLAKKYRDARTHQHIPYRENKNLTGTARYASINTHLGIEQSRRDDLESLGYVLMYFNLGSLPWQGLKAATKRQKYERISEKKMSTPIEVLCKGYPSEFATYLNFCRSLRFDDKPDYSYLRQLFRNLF

The values below come from article PMC4008364, “Alleviation of behavioral hypersensitivity in mouse models of inflammatory pain with two structurally different casein kinase 1 (CK1) inhibitors” (Molecular Pain, 2014).

The target in assay [1] is T1, human CK1ϵ (Homo sapiens, UniProt P49674).
T1 construct: catalytic domain of human CK1ϵ were expressed as N-terminal GST-fusion protein; GST (N); purchased Carna Biosciences, Inc; host or cells: baculovirus system (insect cells)
T1 sequence (P49674 9-277 limits assumed): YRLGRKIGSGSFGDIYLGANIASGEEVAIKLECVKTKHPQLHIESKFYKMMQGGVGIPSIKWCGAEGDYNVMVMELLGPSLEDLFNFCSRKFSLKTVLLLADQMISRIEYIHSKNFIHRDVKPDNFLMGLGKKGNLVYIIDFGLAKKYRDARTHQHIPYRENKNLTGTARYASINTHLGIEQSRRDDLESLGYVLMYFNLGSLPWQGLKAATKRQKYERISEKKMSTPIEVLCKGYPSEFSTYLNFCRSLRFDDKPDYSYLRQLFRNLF
Put plainly: In vitro kinase assay (QuickScout mobility shift assay), CK1ϵ. The conditions noted are these: substrate peptide CKtide; ATP at Km 16 μM; average of duplicated experiments. The assay is classed as biochemical. An excerpt: (§1) […]; Carna Biosciences, Inc., Kobe, Japan). Detailed information on the assay condition is available on the website of Carna Biosciences (http://www.carnabio.com). Full-length human CK1α, CK1γ1, CK1γ2, CK1γ3 and catalytic domain of human CK1ϵ were expressed as N-terminal GST-fusion protein using baculovirus system, and purified by using glutathione sepharose chromatography. Catalytic domain of CK1δ was expressed as N-terminal GST-fusion protein in E. coli, and purified by using glutathione sepharose chromatography.

Assay [2] addresses T2, CK1δ (Homo sapiens, UniProt P48730).
T2 construct: Catalytic domain of CK1δ was expressed as N-terminal GST-fusion protein in E. coli; GST (N); purchased Carna Biosciences, Inc; host or cells: E. coli
T2 sequence (P48730 9-277 limits assumed): T1 sequence (P49674 9-277 limits assumed) with A19T, N20D, S23A, F47I, S59T, K61R, S241A
Put plainly: In vitro kinase assay (QuickScout mobility shift assay), CK1δ. The assay is classed as biochemical. The conditions noted are these: substrate peptide CKtide; ATP at Km 7.7 μM; average of duplicated experiments.
Source text: as §1

By IC50 is commonly meant the concentration at which inhibition is half-maximal. Turning to `CCN1/C(=C/C(C)=O)Sc2ccc(OC)cc21` [TG003], the IC50 in assay [1] amounted to 1400 nM; in assay [2], 340 nM.
